# Results published in US11376302B2, “Methods for treating depression and major depressive disorder” (priority 2017, dated 2022).
# Columns and labels:
# Assay type in all cases: in vivo, mouse
# [1] = tested on: global protein synthesis in the hippocampus; assay: SUnSET measurement of global protein synthesis in brain tissue after injection; conditions: for global protein synthesis (puromycin incorporation): after ketamine
# Method: Protein synthesis was measured by the SUnSET method. After pharmacological manipulation, mice were sacrificed by cervical dislocation, brains were removed, and the hippocampi were rapidly dissected, immersed in liquid nitrogen, and stored at −80° C. until further use. Hippocampi were homogenized using 20 strokes of a pre-chilled glass homogenizer with 600 μl of lysis buffer containing 50 mM Tris, pH 7.8, 240 mM KCl, 10 mM MgCl2, 250 mM D-sucrose, 2% Triton X-100, 20 μg/ml emetine, 5 mM DTT, 100 U/ml Rnasin (Promega), and protease inhibitor mixture without EDTA (Roche). Samples were centrifuged for 5 min at 16,100 g at 4° C. and supernatant was incubated with 100 µg/ml puromycin for 10 min at 4° C. An equal volume of 2×SDS sample buffer (10% glycerol, 5% β-mercaptoethanol, 4% SDS, 120 mM Tris-HCl, pH 6.8) was added to the samples and then boiled for 10 min at 100° C. Protein concentrations were determined using the BCA protein assay (Thermo), and samples were stored at −20° C. until further use. Puromycin incorporation was detected by western blotting using 12D10 antibody for puromycin (1:1000, Millipore).
# eEF2 = assay: Western blot of eEF2 phosphorylation (pT56) in brain tissue after injection
# Method: (§1) Sample preparation: Brains were quickly excised; hippocampus and cortex were dissected, and snap frozen in liquid nitrogen. Tissues were transferred from the liquid nitrogen to a glass-Teflon homogenizer and homogenized with a buffer containing 10 mM HEPES pH 7.4, 2 mM EDTA, 2 mM EGTA, 0.5 mM DTT (all from Sigma), 1× phosphatase inhibitor mixture (Sigma/Thermo Scientific), and 1× protease inhibitor mixture (Sigma/Thermo Scientific). Equal volumes of 2×SDS sample buffer were immediately added to the homogenates, and samples were boiled for 10 min. Samples were centrifuged at 12,000 g for 15 minutes and the supernatants were transferred to 3 aliquots. Each aliquot was thawed on ice and used for blotting only once or twice.
# (§2) Prepared samples in SDS sample buffer were subjected to 7.5% or 4-20% gradient gel (Bio-Rad pre-cast gels) SDS-PAGE (electrophoresed on Bio-Rad PAGE apparatus) and Western blot analysis. Each sample was loaded with the same amount of total protein (7-15 μg; according to antibody linearity). After transfer to a 0.2 μm pore size nitrocellulose or polyvinyidine fluoride membranes, the blots were blocked with 4% bovine serum albumin (BSA) or 4% non-fat dry milk in tris-buffered saline plus 0.5% tween-20 (TBST) at room temperature for 1 hr. They were then incubated overnight with the suitable primary antibodies at 4° C. The blots were then subjected to three 10 min washing steps in TBST, after which they were incubated with the corresponding HRP-conjugated secondary antibodies for lh at room temperature followed by three 10 min washing steps with TB ST. Immunodetection was performed with the enhanced-chemiluminescence EZ-ECL kit (Biological Industries, Israel). The immunoblots were quantified with a CCD camera and Quantity One software (Bio-Rad). Each immunoblot was measured relative to the background and normalized to the endogenous controls (β-actin). Phosphorylation levels were calculated as the ratio between the readings from the antibody directed against the phosphoproteins and those from the antibody directed against the phosphorylation state-independent forms of the proteins.
# CaMKIIα = assay: Western blot of CaMKIIα phosphorylation (pT286, pT305) and total level in brain tissue after injection; conditions: for auto-active phosphorylation of CaMKIIα (pT286): 40 min after ketamine injection; for auto-active phosphorylation pT286CaMKIIa / auto-inhibitory phosphorylation pT305CaMKIIa: 1 hour after ketamine injection; for total CaMKIIα levels: any time point examined after ketamine
# Method: as §1, §2
# GluA1 = assay: Western blot of GluA1 expression in brain tissue after injection; conditions: for GluA1 expression levels: C57BL/6 mice; for GluA1 expression in the hippocampus: 24 hours
# Method: as §1, §2
# [2] = hippocampus, 3 hours after ketamine, TatCN21 or control 10 minutes before
compound,measurement,setting,value
CNC1(c2ccccc2Cl)CCCCC1=O (stereo not drawn) [ketamine],global protein synthesis,[1]; 30 minutes after ketamine injection,significantly increased
same,global protein synthesis (puromycin incorporation),[1]; WT mice,increased protein synthesis
same,global protein synthesis (puromycin incorporation),[1]; eEF2K-KO mice,did not lead to further increase
same,phosphorylated eEF2 (peEF2),eEF2; 20-30 minutes after ketamine administration,strongly decreased
same,phosphorylated eEF2 (peEF2),eEF2; 40 minutes after ketamine administration,returns to its baseline levels
same,phosphorylated eEF2 (peEF2),"eEF2; WT mice (eEF2K littermates), hippocampal lysates, 30 minutes after ketamine",significantly lower
same,eEF2 phosphorylation,"eEF2; hippocampus, 20 min after ketamine administration, C57BL/6 mice",significantly reduced
same,pT286CaMKIIα,"CaMKIIα; WT animals, 30 minutes after ketamine",higher
same,pT305 phosphorylation of CaMKIIα,"CaMKIIα; WT littermates, 30 minutes after ketamine",significantly higher
same,auto-inhibitory phosphorylation of CaMKIIα (pT305),"CaMKIIα; cortex, 20 min after ketamine, C57BL/6 mice",significant induction; also recorded: significantly increased
same,auto-active phosphorylation of CaMKIIα (pT286),"CaMKIIα; cortex, C57BL/6 mice",slightly increased
same,auto-inhibitory phosphorylation of CaMKIIα (pT305),"CaMKIIα; cortex, 40 minute time point after ketamine",returned to baseline
same,auto-active phosphorylation pT286CaMKIIa,CaMKIIα; cortex,significantly increase
same,auto-inhibitory phosphorylation pT305CaMKIIa,CaMKIIα; cortex,reduced
same,total CaMKIIα levels,CaMKIIα; cortex,did not show any difference; also recorded: no difference
same,pT286 and pT305 phosphorylation levels of CaMKIIα,"CaMKIIα; eEF2K-KO mice, after ketamine",no additive changes
same,auto-inhibitory phosphorylation of CaMKIIα (pT305),"CaMKIIα; hippocampus, 20 min after ketamine, C57BL/6 mice",significant induction; also recorded: significantly increased
same,auto-active phosphorylation of CaMKIIα (pT286),"CaMKIIα; hippocampus, C57BL/6 mice",slightly increased
same,auto-inhibitory phosphorylation of CaMKIIα (pT305),"CaMKIIα; hippocampus, 40 minute time point after ketamine",returned to baseline
same,auto-active phosphorylation pT286CaMKIIa,CaMKIIα; hippocampus,significantly increase
same,auto-inhibitory phosphorylation pT305CaMKIIa,CaMKIIα; hippocampus,reduced
same,CaMKIIa phosphorylation of pT286,CaMKIIα; [2],trend towards higher phosphorylation
same,"any other protein examined, or their phosphorylation status",CaMKIIα; [2],no significant difference
same,total CaMKIIα levels,CaMKIIα; hippocampus,did not show any difference; also recorded: no difference
same,GluA1 expression levels,"GluA1; hippocampus, 20 minutes after ketamine",increased expression levels
same,GluA1 expression levels,"GluA1; hippocampus, 40 minutes after ketamine",increased expression levels
same,GluA1 expression,"GluA1; hippocampus, 3 hours after ketamine injection",no significant difference
same,GluA1 level,"GluA1; hippocampus, 24 hours following ketamine administration",markedly higher
same,GluA1 expression in the hippocampus,GluA1; ketamine 5 mg/kg b.w.,induced GluA1 expression
same,GluA1 expression in the hippocampus,GluA1; ketamine 10 mg/kg b.w.,induced GluA1 expression

# Entries after “also recorded” stand apart in the source; their conditions may differ.
